Target: T1, human PD-L1 (human)
T1 construct: whole, on cells; For the PD-L1 tf DLD1 cells the species of PD-L1 is not restated; also called PD-L1 tf CHO-S; PD-L1 tf DLD1
Experiment: flow cytometry on PD-L1 tf CHO-S cells, fixed concentration of biotinylated PD1_G4 alone, streptavidin-PE

B1: biotinylated PD1_G4 (Fc fusion)
chain: DSPDRPWNPPTFSPALLVVTEGDNATFTCSFSNTSESFVLNWYRMSPSNQTDKLAAFPEDRSQPGQDCRFRVTQLPNGRDFHMSVVRARRNDSGTYLCGAISLAPKAQIKESLRAELRVTERRAEVPTAHPSPSPRPAGQFQTLVESKYGPPCPPCPAPEFLGGPSVFLFPPKPKDTLMISRTPEVTCVVVDVSQEDPEVQFNWYVDGVEVHNAKTKPREEQFNSTYRVVSVLTVLHQDWLNGKEYKCKVSNKGLPSSIEKTISKAKGQPREPQVYTLPPSQEEMTKNQVSLTCLVKGFYPSDIAVEWESNGQPENNYKTTPPVLDSDGSFFLYSRLTVDKSRWQEGNVFSCSVMHEALHNHYTQKSLSLSLGK
modifications: biotinylated (sites not given)
notes: also called Biotin PD1 Fc
B1: binds.

Reference: patent publication US20240400691A1 (FBD BIOLOGICS, published 2024)
